Test results: patent publication US20060165769A1, “Pharmaceutical formulations containing vitamin E TPGS molecules that solubilize lipophilic drugs without significant efflux inhibition, and use of such formulations” (priority 2004, published 2006)

Columns and labels:
[1] = tested on: Caco-2 monolayers (efflux transport of Rhodamine 123); experiment: Inhibition Protocol: Rhodamine 123 transport across Caco-2 monolayers in the presence of TPGS analog; assay type: cell-based
Procedure: As used herein, the term “Inhibition Protocol” or “inhibition protocol” refers to the following test. The test is carried out using Caco-2 (C2BBe1 or HTB-37) monolayers which are known to be a good in vitro model for gastrointestinal epithelial cells. The following describes the inhibition protocol: Caco-2 cells, clone C2BBe1, from passages 48-92 are used. Cells are grown to ˜90% confluent in 75 cm^2 T-flasks with Dulbecco's modified Eagle's medium (DMEM) supplemented with 10% fetal bovine serum (FBS) and 1% non-essential amino-acids. Cells are grown at a temperature of ˜37° C. in an atmosphere of ˜85% relative humidity and ˜5% CO2. Cells are seeded on top of Transwell® inserts (pore size 0.4 μm, 1.13 cm^2) at a density of ˜60,000 cells/cm^2. […]
Rhodamine 123 (RHO) transport is assessed in absorptive (apical to basolateral, Ap→BI) and secretory (BI→Ap) directions. […]
Monolayers are agitated using an orbital shaker at ˜100±20 rpm. […] To ensure integrity of the monolayers, TEER values were measured on the day of the experiment and at the end of the experiment.
Apparent permeability (Papp) was calculated according to: Papp=(dQ/dt)*(1/A)*(1/Co)
where A (cm^2) is the nominal surface area of the monolayer and C0 (μg/mL) is the RHO concentration in the donor compartment at t=0. Relative change of Papp(cm/s)was calculated according to the equation: rel. increase/decrease=|(1−Papp(TPGS)/Papp(RHO))*100|. […]

[2] = Critical micellar concentration in water by surface tension; assay type: physicochemical; details: inflection point of surface tension vs concentration
Procedure: A series of TPGS analogs were synthesized by methods similar to those used to synthesize TPGS 1000, differing only in the molecular weight of the polyethylene glycol (PEG) chain. Solutions were prepared of various known concentrations of these derivatives in water. Surface tension of these solutions were measured, and plotted against the concentration of the TPGS. […] The concentration at this inflection point is defined as the critical micellar concentration (CMC) of the particular TPGS in water. The following is a table of the measured CMC's versus the molecular weight of the PEG chain.

d-α-tocopheryl polyethylene glycol succinate [TPGS 1000]
Inhibition of efflux transport of Rhodamine 123 in Caco-2 monolayers (in words) ([1]; Inhibition Protocol, 33 μM): effectively inhibited efflux transport
Ratio, Papp(B − A)/Papp(A − B) ([1]; Rhodamine 123 efflux ratio, TPGS analog 33 μmolar, control 17.9): 2.58
CMC [2]: 0.02 ± 0.02 Wt. %
